{"sequences": {"note": "By UniProt entry, the sequences of proteins in these tests, tags left out. Where a name states a change or a piece, a line headed by the entry shows the natural chain unless it says otherwise.", "UniProt P30518, whole entry": "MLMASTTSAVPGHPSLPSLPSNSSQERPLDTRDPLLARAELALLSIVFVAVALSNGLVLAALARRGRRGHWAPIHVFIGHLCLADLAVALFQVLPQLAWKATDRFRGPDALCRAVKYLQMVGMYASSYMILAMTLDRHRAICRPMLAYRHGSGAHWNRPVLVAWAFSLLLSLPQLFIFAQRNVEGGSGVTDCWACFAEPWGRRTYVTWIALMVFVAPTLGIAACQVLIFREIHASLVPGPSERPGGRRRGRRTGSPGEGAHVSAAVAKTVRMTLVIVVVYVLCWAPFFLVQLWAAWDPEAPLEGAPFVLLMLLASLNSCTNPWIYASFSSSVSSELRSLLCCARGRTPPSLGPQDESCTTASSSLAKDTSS"}, "source": "patent US12600729B2", "about": "“New-type benzazepine fused ring derivative” (SHANGHAI JEYOU PHARMACEUTICAL CO., LTD., priority 2021, dated 2026)", "molecular_target": "T1, human V2R (Homo sapiens, UniProt P30518)", "T1 construct": "purchased Perkinelmer, USA", "test": "Competitive isotope ligand binding, V2 receptor", "description": "The cells with high expression of human V1a receptor were amplified, collected, washed twice with PBS, resuspended with PBS containing a protease inhibitor, homogenized with a homogenizer at 15000 r/min to break the cells, and centrifuged at 4° C. and 3000 r/min for 15 minutes. The supernatant was collected, centrifuged at 20,000 r/min at 4° C. for 45 minutes. Then the supernatant was discarded to obtain a cell membrane precipitation. Buffer was added to resuspend to measure the protein concentration, aliquoted, and stored at −80° C. The cell membranes of highly expressed human V1b and V2 receptors were purchased from Perkinelmer, USA.\nThe stock solution of the test compound and that of the positive control were diluted to 1 mM (10-fold dilution) and 0.1 mM (100-fold dilution) with DMSO, respectively, and then sequentially subjected to a four-fold dilution with DMSO to the tenth point.\nCell membranes overexpressing human receptors were prepared with assay buffer to 5 mg/mL.\n• 1. 1 μL of the compound was aspirated from the dilution plate into each well of the 96-well assay plate (the concentration of the test compound in the reaction would be diluted 100-fold). To the control well was added 1 μL of DMSO. • 2. 10 mL of membrane solution containing 5 μg/μL was prepared. • 3. To the compound assay plate was added the membrane solution from step 2 with a pipette, and each well was added with 89 μL of the membrane solution. • 4. […] The configured test plate was placed at 30° C. and incubated for 60 minutes. • 6. The membrane complexes were collected into 0.5% PEI pre-coated GF/B plate with Cell Harvester, washed 3 times with 2 mL of pre-cooled elution buffer at 4° C., and dried at 37° C. for 2 hours. • 7.\nY=Bottom+(Top−Bottom)/(1+10^((X−Log IC50))), wherein: Y is the reading value of the liquid scintillation counter, and X is the logarithmic value of the compound concentration.", "note": "Where two headings read alike, the source gives them in different places.", "data": [{"smiles": "Cc1ccccc1C(=O)Nc1ccc(C(=O)N2CCCC(O)c3cc(Cl)ccc32)c(C)c1", "note": "(stereo not drawn) [Reference substance 1, Tolvaptan, reference compound]", "values": [{"measurement": "Ki", "setting": "Binding affinity V2R, N = 1, isotope-labeled vasopressin 1 nM, experiment 1", "value": 0.27, "unit": "nM"}, {"measurement": "Ki", "setting": "Binding affinity V2R, N = 2, isotope-labeled vasopressin 1 nM, experiment 2", "value": 0.6, "unit": "nM"}, {"measurement": "Ki", "setting": "isotope-labeled vasopressin 1 nM, mean ± spread, read-out: Binding affinity V2R, mean of the two experiments", "value": "0.44 ± 0.17", "unit": "nM"}]}]}
